Source: patent US20090137600A1, “Antiplatelet agent and process for producing the same” (priority 2004, published 2009)

Assay: Crystal stability on storage at 25° C. and 0%, 52% or 93% RH for 3 days
Type: physicochemical
Parameters: key to Crystal form (change): No: No change; Yes: Some change
Method: Compounds (1a), (1b), and (1c) as well as various salts of Compound (1a) produced in the Examples as described above were stored at 25° C. and at a relative humidity of 0%, 52%, or 93% for 3 days to evaluate change in weight and crystal form. Change in crystal form was measured in the case of fumarate at a low humidity, and in the case of Compound (1a) and its citrate at a high humidity. The salts of Compound (1a) were produced according to the method of Example 3.

Succinate
Crystal form (change) (0% RH): No
Weight change (%) (0% RH): 0.00%
Crystal form (change) (52% RH): No
Weight change (%) (52% RH): 0.97%
Crystal form (change) (93% RH): No
Weight change (%) (93% RH): 1.07%
